{"source": "patent US20260382624A1", "about": "“PHARMACEUTICAL COMPOSITIONS COMPRISING MELOXICAM” (published 2026)", "tested_on": "migraine patients", "experiment": "Example 1 Phase 3 trial: treatment-emergent adverse events", "conditions": "N = 441 meloxicam/rizatriptan, 434 rizatriptan, 433 meloxicam", "data": [{"compound": "CN(C)CCc1c[nH]c2ccc(Cn3cncn3)cc12", "values": [{"measurement": "Any Treatment-Emergent Adverse Event (number of subjects)", "result": "67 number of subjects"}, {"measurement": "Dizziness (% of subjects)", "result": "(2.1%)"}, {"measurement": "Dizziness (number of subjects)", "result": "9 number of subjects"}, {"measurement": "Nausea (% of subjects)", "result": "(4.8%)"}, {"measurement": "Nausea (number of subjects)", "result": "21 number of subjects"}, {"measurement": "Somnolence (% of subjects)", "result": "(2.1%)"}, {"measurement": "Somnolence (number of subjects)", "result": "9 number of subjects"}, {"measurement": "Any Treatment-Emergent Adverse Event (% of subjects)", "setting": "placebo (6.0%)", "result": "(15.4%)"}]}]}
